Data reported in ChEMBL document CHEMBL5038590, “Discovery of G Protein-Biased Ligands against 5-HT7R” (J Med Chem, 2021).

Protein sequences, listed by entry. Tags and fused reporters are not part of them.
UniProt P34969, whole entry: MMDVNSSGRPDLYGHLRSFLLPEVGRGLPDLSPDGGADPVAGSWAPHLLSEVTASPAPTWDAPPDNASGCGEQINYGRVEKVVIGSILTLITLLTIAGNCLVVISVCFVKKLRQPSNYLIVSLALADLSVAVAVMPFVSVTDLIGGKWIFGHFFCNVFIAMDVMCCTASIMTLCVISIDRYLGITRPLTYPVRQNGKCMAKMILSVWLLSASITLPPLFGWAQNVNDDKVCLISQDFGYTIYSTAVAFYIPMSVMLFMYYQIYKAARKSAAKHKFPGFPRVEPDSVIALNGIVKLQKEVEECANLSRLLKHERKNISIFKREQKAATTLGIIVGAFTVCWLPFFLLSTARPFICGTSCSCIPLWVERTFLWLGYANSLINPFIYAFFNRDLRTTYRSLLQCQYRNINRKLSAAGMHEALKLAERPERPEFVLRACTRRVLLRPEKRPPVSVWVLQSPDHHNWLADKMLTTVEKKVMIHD

Assays:
[1] = biological target: T1, 5-hydroxytryptamine receptor 7 (Homo sapiens, UniProt P34969); details: HEK293, time 22.0 hrs
[2] = biological target: T1, 5-hydroxytryptamine receptor 7; details: HEK293, time 30.0 min

Row | Structure (SMILES) | pEC50 [1] | pEC50 [2]
1 | CCNCCc1ccc(Cl)c(-c2ccccc2OC)c1.Cl | inactive | –
2 | CCCNCCc1ccc(Cl)c(-c2ccccc2OC)c1.Cl | inactive | –
3 | CCN(CC)CCc1ccc(Cl)c(-c2ccccc2OC)c1 | inactive | –
4 | CCCN(CCC)CCc1ccc(Cl)c(-c2ccccc2OC)c1 | inactive | –
5 | CCN(CC)Cc1ccc(Cl)c(-c2ccccc2OC)c1 | inactive | inactive
6 | CCCCNCCc1ccc(Cl)c(-c2ccccc2OC)c1.Cl | inactive | inactive
7 | CCCN(CCC)Cc1ccc(Cl)c(-c2ccccc2OC)c1 | inactive | inactive

Activity calls are given as the source filed them. The rule behind the calls is not given here.
